Values of other authors as cited in patent US5202319A, “Substituted 3-amino-2,3,4,5-tetrahydro-1-aryloxy-3-benzazepines” (Hoechst-Roussel Pharmaceuticals Inc., priority 1991, dated 1993).

Tested on: 5HT uptake
Conditions: cited from earlier work

| SMILES | effects on 5HT uptake |
| --- | --- |
| O=c1n(CCCN2CCN(c3cccc(Cl)c3)CC2)nc2ccccn12 [Trazodone] | fairly selective effects on 5HT uptake |
| CNCCC(Oc1ccc(C(F)(F)F)cc1)c1ccccc1 (centres unmarked) [Fluoxetine] | both a selective and potent 5HT uptake inhibitor |
